Source: patent US4517002A (priority 1983, dated 1985)

What was measured:
urease [1] = settings: 800 micrograms test compound + 42.8 mg urea in 20 g air-dry soil (Cazenovia sandy loam, pH 7.2), 25° C., three days, triplicate
urease [2] = settings: 800 micrograms test compound + 42.8 mg urea in 20 g air-dry soil (Plano silt loam, pH 5.4), 25° C., three days, triplicate

Structure (SMILES): NP(N)(=O)OC(CCl)CCl
- % Inhibition Cazenovia Soil (urease [1]): 72%
- % Inhibition Wisconsin Soil (urease [2]): 49%
